Protein sequences, listed by entry. Tags and fused reporters are not part of them. Residues count along the entry.
UniProt P01308, 25-56 limits assumed, stated change not applied: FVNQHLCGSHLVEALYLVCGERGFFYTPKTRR
UniProt P01308, 90-110 N110G limits assumed: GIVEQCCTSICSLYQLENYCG

In US20140235536A1, “INJECTABLE SOLUTION AT PH 7 COMPRISING AT LEAST ONE BASAL INSULIN THE ISOELECTRIC POINT OF WHICH IS COMPRISED IN 5.8 AND 8.5 AND AN ANIONIC COMPOUND BEARING CARBOXYLATE CHARGES AND HYDROPHOBIC RADICALS” (ADOCIA, priority 2013, published 2014):

What was measured:
[1] = molecular target: insulin glargine and prandial insulin (Homo sapiens, UniProt P01308, INS54RR/N110G); settings: pH 7
insulin glargine = molecular target: T1, insulin glargine (Homo sapiens, UniProt P01308, INS54RR/N110G); format: physicochemical; settings: pH 7
T1 construct: substitution of asparagine residue A21 with a glycine residue; elongation of the C-terminal of the B chain of human insulin with two arginine residues; purchased SANOFI-AVENTIS (Lantus®); ELI LILLY (Humalog®)

“Sodium Maltotriosemethylcarboxylate Functionalized with Dilauryl Aspartate [AA6]” was tested, and the “Solubilization of insulin glargine/insulin lispro 75/25” value [1] was “Yes” and the Insulin glargine solubilization (insulin glargine) was “Yes”.
